Experimental data taken from article PMC8880315, “Understanding the Impact of Age-Related Changes in Pediatric GI Solubility by Multivariate Data Analysis” (Pharmaceutics, 2022).

Conditions: both pediatric fasted gastric fluids (Pn-FaSSGF and Pi-FaSSGF) vs adult FaSSGF

CCCCc1oc2ccccc2c1C(=O)c1cc(I)c(OCCN(CC)CC)c(I)c1 [Amiodarone]
Sp/Sa (%) vs 80–[…] threshold: outside the 80–125% threshold
